1 substance from US20130289023A1, “METHOD FOR TREATING BRAIN TUMOR” (priority 2012, published 2013) can be followed below.

One data set concerns GBM8401 cells. Put plainly: MTT cell viability assay in GBM8401. Particulars: 10 μM, 72 hr. As to the method: To examine the cytotoxicity of anti-psychotic drugs on malignant glioma, GBM8401 cells were treated with 21 anti-psychotic drugs at 10 μM, respectively, for 72 hr.
In general terms: Tetrazolium assays rely on reduction of a dye to a coloured formazan, in cell work by metabolically active cells.

In data set [1] the test system is U87MG sphere cells (cancer stem-like cells). As to conditions: 10 and 20 μM, 24 hr.

As for fluphenazine, the “cytotoxicity compared with the other anti-psychotic drugs” value with GBM8401 cells was “more effective in cytotoxicity”. Moreover, in data set [1], the cell viability result is listed as “significantly reduced”.
